Experimental data published in patent publication US20160345827A1, “TWO-PHOTON MICROSCOPY IMAGING RETINA CELL DAMAGE” (POLGENIX, INC., priority 2014, published 2016).

Tested on: Abca4^−/−Rdh8^−/− mice
Test: light-induced retinal degeneration in Abca4^−/−Rdh8^−/− mice, TPM and histology at day 7
Settings: 730 nm and 850 nm excitation, day 7 after light; Ret-NH2 1 mg oral gavage, Apo 1 mg i.p.

COc1cc(C(C)=O)ccc1O [apocynin]
RPE autofluorescence appearance by TPM: RPE appearance similar to mice unexposed to light
